System: SF767 cells
Assay: MTT assay for cell proliferation / mafosfamide sensitivity, SF767
Type: cell-based
Conditions: 10 μM inhibitor + mafosfamide

SMILES	chemosensitivity to mafosfamide (in words), SF767
Cc1nc2ccccc2n1S(=O)(=O)c1ccc(F)cc1 [CB7, 1-[(4-fluorophenyl)sulfonyl]-2-methyl-1H-benzimidazole]	significantly increased chemosensitivity
COc1cc(S(=O)(=O)n2c(C)nc3ccccc32)ccc1Cl [Compound A64]	significantly increased chemosensitivity
COc1cc(S(=O)(=O)n2c(C)nc3ccccc32)ccc1F [Compound A70]	significantly increased chemosensitivity

Source: patent publication US9320722B2, “Regulators of aldehyde dehydrogenase ALDH3A1 and related therapeutic methods” (Indiana University Research and Technology Corporation, priority 2013, dated 2016)
